AlphaSeq binding of Ab-14 light chain variants to a spike HR2 peptide

Values reported by Li et al. 2023, doi:10.1038/s41467-023-39022-2 (FLAb copy).

Target peptide (SARS-CoV-2 spike, HR2 region): PDVDLGDISGINAS

Each scFv is VH, three GGGGS repeats, VL, as in the parent Ab-14, and differs from it in the CDRs of the light chain only.
VH: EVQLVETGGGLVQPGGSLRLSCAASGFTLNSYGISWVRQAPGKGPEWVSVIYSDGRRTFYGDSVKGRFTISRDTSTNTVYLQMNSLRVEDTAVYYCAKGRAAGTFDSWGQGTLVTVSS
VL: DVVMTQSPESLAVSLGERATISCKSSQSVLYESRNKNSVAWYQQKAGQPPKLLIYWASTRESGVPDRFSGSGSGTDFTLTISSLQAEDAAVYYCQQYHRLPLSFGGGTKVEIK

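This is the validation round: designs drawn from the data on random variants, tested in the same kind of assay. Group labels follow the data file (En: ensemble of fine-tuned language models; GP: Gaussian process model; HC: hill climbing; Gen: genetic algorithm; Gibbs: Gibbs sampling; a sequence that several methods proposed may carry one label only). The scFvs were displayed on barcoded MATa yeast, the peptide on MATalpha yeast. After mating in shaken culture at 30 °C for 16 h, diploids were selected and their barcode pairs sequenced. A regression on co-assayed BCL2-family reference pairs converts the normalised counts of each replicate to an apparent Kd. Each pool was mated in six replicate cultures.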

Each variant is given by its three light chain CDRs, as the data file delimits them; those of the parent are KSSQSVLYESRNKNSVA, WASTRES, QQYHRLPLS. Variants here have more than six changes. Values are log10 of the apparent Kd in nM; lower means stronger binding. Averages over replicates are reported, and they cover detected replicates only. An entry "nd" has no value in the source: the pair was not observed among the diploids in any replicate. This suggests poor binding but is not conclusive. Values of this round are not directly comparable with the first-round values of the same sequences. The parent sequence was in this pool as ten entries: three were never detected, three once, and four in most replicates, with averages from 0.34 to 2.37. Background: pairings of all light chain designs with three empty control strains gave a value in 4% of cases (median 2.64, 5th percentile 1.59). Values in that range, when seen in few replicates, are hard to tell from nonspecific mating. For each scFv, signals with the empty controls are counted beside the result. The authors averaged sequences with at least three values out of six and counted those with two or fewer as poor binders.

For KLSTSVLYESRMANAVA / AASTREE / QQYHRLPLS [GP_Gibbs], the assay gave -0.61 (6 of 6 replicates; controls 1 of 18). Variant IVSQLMLWGLHAKNSIA / EAEMRLN / QQYHRLPLF [En_Gen] gave 3.31 (1 of 6 replicates; controls 0 of 18). For KISMYLNKESKAGNNVA / EMVNREA / QQYDRLPLS [En_HC], the assay gave 1.88 (6 of 6 replicates; controls 1 of 18). For TLYGLSVSMSKNVNNVA / EMTTRED / QQYDRLPLV [En_Gen], the assay gave 1.10 (6 of 6 replicates; controls 0 of 18). Variant KLSQSMGYGERNKNSVA / HASQRMS / QQYHRLPLS [GP_Gibbs] showed 0.54 (6 of 6 replicates; controls 0 of 18). For IISQSVMFEQTLINSVA / NAQTREQ / QQYHRLPLS [En_HC], the assay gave 0.27 (6 of 6 replicates; controls 1 of 18). Variant TLTQVQGMEEHNKDNVA / DLSTRGS / QQYHRLPLS [En_HC] gave -0.17 (6 of 6 replicates; controls 1 of 18). For KISQLVNFEGKNKNSVA / QMSTREV / QQYDRLPLS [En_HC], the assay gave 0.19 (6 of 6 replicates; controls 2 of 18).

Variant KLSMSMLMESRHKNSVA / ENSTRED / QHYHRLPLS [En_HC] gave 1.63 (6 of 6 replicates; controls 3 of 18). Variant KIQQSVYYESLNKNSVA / HASTRLQ / QQYHRLPLS [GP_Gibbs] gave 1.12 (6 of 6 replicates; controls 0 of 18). Variant TLTQVTMVESYNKNSVA / QANTRLE / QDYHRLPLS [En_HC] gave 2.16 (6 of 6 replicates; controls 1 of 18). With NVSIEPPEGTRYWEAVA / DHSQRNN / QQYDQLPLS [En_Gibbs] the result was 3.50 (2 of 6 replicates; controls 0 of 18). With IVSQLMLWGMHAKNSIA / EAETRPN / QQYDRLPLM [En_Gen] the result was nd (0 of 6 replicates; controls 0 of 18). For KLEQEYDYGSRNKNSVA / QASLRES / QQYHRLPLS [GP_Gibbs], the assay gave 0.40 (6 of 6 replicates; controls 1 of 18). For HITDLHYFGNEGEWNIA / DDNISVM / QQYFRLPLS [En_Gibbs], the assay gave 2.40 (6 of 6 replicates; controls 2 of 18). With QVQYHPGESLRHTSSIA / DVNIKDM / QQYSRLPLS [En_Gibbs] the result was 0.43 (6 of 6 replicates; controls 1 of 18).

Variant KFSQMANSMSVSKSAVA / EMSTRPE / QQYNRLPLS [En_Gen] gave 0.25 (6 of 6 replicates; controls 0 of 18). Variant MISQVMNTLTRQGNNVA / DLQERED / QQYFRLPLS [En_Gen] gave 1.08 (6 of 6 replicates; controls 0 of 18). With KLGSSTRFESSNKASIA / DNSTREE / QQYHRLPLS [En_HC] the result was 0.87 (6 of 6 replicates; controls 0 of 18). For TLYMGPTEARDSKHAIA / DMNERDR / QQYHRLPLV [En_Gibbs], the assay gave 0.67 (6 of 6 replicates; controls 1 of 18). With MISQLYNMGTFAINSVA / QASVRNE / QQYDRLPLI [En_Gen] the result was 1.56 (6 of 6 replicates; controls 1 of 18). With KISFLTNQTFEQSNNVA / EMVTRER / QQYNRLPLS [En_Gen] the result was 0.83 (6 of 6 replicates; controls 0 of 18). Variant TIGSTLMYGMRNRSNVA / EVSERCN / QQYDRLPLL [En_Gen] gave 1.38 (6 of 6 replicates; controls 2 of 18). With KIGMTLNTLLHQKNNVA / DLVTREN / QQYSRLPLS [En_Gen] the result was 1.03 (6 of 6 replicates; controls 3 of 18).

Variant KSSMSQEYESRNSNSVA / HASTRED / QQYHRLPLI [GP_Gibbs] gave 0.31 (6 of 6 replicates; controls 3 of 18). Variant KIAHAPLEFNEKMNSVA / NGACAEI / QQYDRLPLA [En_Gibbs] gave nd (0 of 6 replicates; controls 0 of 18). For KLSEYVGGESRNKSSLA / DNSTRES / QQYHRLPLS [En_HC], the assay gave 1.32 (6 of 6 replicates; controls 2 of 18). With KIGMTLNTLMHQKNNVA / DLVMREK / QQYHRLPLS [En_Gen] the result was 0.53 (6 of 6 replicates; controls 0 of 18). Variant KAQFSCLYESRNQNSVA / SASYRLS / QQYHRLPLS [GP_Gibbs] gave 0.64 (6 of 6 replicates; controls 0 of 18). Variant TISASMRYESSLKNAIA / NAQTRES / QQYHRLPIS [En_HC] gave 0.74 (6 of 6 replicates; controls 1 of 18). For IITQSVMQESRNKSNVA / NTAERES / QQYDRLPLI [En_HC], the assay gave 3.11 (5 of 6 replicates; controls 1 of 18). With KVMQEMEYESRMANSVA / NASQRES / QQYHRLPLS [GP_Gibbs] the result was 0.57 (6 of 6 replicates; controls 0 of 18).

With KVEPSVQGEQRNMNAVA / SASTREQ / QQYHRLPLS [GP_Gibbs] the result was 0.11 (6 of 6 replicates; controls 2 of 18). With KIDISELGESRNKNSVA / NASTREE / QQYHRLPLS [GP_Gibbs] the result was -0.07 (6 of 6 replicates; controls 0 of 18). Variant HVSESIFAQSKMRNSVA / ENSTRES / QQYDRLPLS [En_HC] gave 1.59 (6 of 6 replicates; controls 0 of 18). For KLSQSQEYESINKNSVA / NASTRLT / QQYHRLPLS [GP_Gibbs], the assay gave -0.19 (6 of 6 replicates; controls 1 of 18). Variant MISQVMNTLTRYGNNVA / DLAEREN / QQYFRLPLS [En_Gen] gave nd (0 of 6 replicates; controls 2 of 18). Variant HINDMLLGSEKIAHSIA / NTGVTSR / QQYQRLPLI [En_Gibbs] gave 0.34 (6 of 6 replicates; controls 0 of 18). Variant MISDLMLHGSRAKNPIA / NAETREY / QQYHRLPLE [En_HC] gave 0.37 (6 of 6 replicates; controls 1 of 18). Variant KIGDTLNQLMTKRNNVA / DLVMREN / QQYFRLPLS [En_Gen] gave 0.48 (6 of 6 replicates; controls 1 of 18).

For KLSISIRGEGSEVQSVA / GAEELRQ / QHYNRLPLS [En_Gibbs], the assay gave nd (0 of 6 replicates; controls 1 of 18). Variant KFTQWTFSQNRDDNSIA / HADEVVR / QQYDRFPLT [En_Gibbs] gave 0.13 (1 of 6 replicates; controls 0 of 18). Variant MVSMMPNEPTIDSNAIA / DHSQRNT / QQYDRLPLS [En_Gibbs] showed 1.70 (5 of 6 replicates; controls 0 of 18). Variant KLRQSTHIESFNKNNVA / EMTTRES / QSYDRLPLS [En_HC] showed 1.09 (6 of 6 replicates; controls 2 of 18).

From the list, the first 4 with no signal in any replicate:

Variant IVSQLMLWGMHAKNSIA / EAETRPN / QQYDRLPLM [En_Gen] gave nd (0 of 6 replicates; controls 0 of 18).
Variant KIAHAPLEFNEKMNSVA / NGACAEI / QQYDRLPLA [En_Gibbs] gave nd (0 of 6 replicates; controls 0 of 18).
Variant MISQVMNTLTRYGNNVA / DLAEREN / QQYFRLPLS [En_Gen] gave nd (0 of 6 replicates; controls 2 of 18).
Variant KLSISIRGEGSEVQSVA / GAEELRQ / QHYNRLPLS [En_Gibbs] gave nd (0 of 6 replicates; controls 1 of 18).